# Curated experimental data: melting point values

Melting points are in °C.

| structure (SMILES) | melting point (°C) |
|---|---|
| CC(=O)CS | 113 |
| COc1cc(C=O)ccc1OCC(=O)O | 185 |
| Cc1cc(Br)c(NC(=O)CCl)c(Br)c1 | 178 |
| O=C1CC(c2ccccc2)=NN1c1ccccc1 | 139 |
| CCOc1ccc(OCC2CO2)cc1 (stereo not given) | 54 |
| O=C(Nc1cccc2ccccc12)OCC(F)(F)F | 110 |
| O=C(O)Cc1coc(-c2ccccc2)n1 | 149 |
| COS(=O)(=O)[O-].C[N+](CCO)(CCO)CCO | -46.5 |
| CCOC(=O)[C@H](CCc1ccccc1)N[C@@H](C)C(=O)O | 150 |
| O=C(O)c1cccnc1N1CCCCC1 | 95 |
| Nn1c(=O)[nH]c2ccccc2c1=O | 298 |
| Cc1cc(S(N)(=O)=O)cc(N)c1C | 160 |
| NNC(=O)Cc1ccc2ccccc2c1 | 190 |
| OCCCCCCCCCSCCCC(F)(F)C(F)(F)F | 41 |
| CC(=O)CC(=O)Nc1ccc(C)c(Cl)c1 | 109 |
| N=C(N)c1ccc(OCCCCCOc2ccc(C(=N)N)cc2)cc1.O=S(=O)(O)CCO.O=S(=O)(O)CCO | 190.5 |
| COc1cc(C(=O)O)ccc1OCc1ccccc1Cl | 144 |
| O=C(Nc1ccccc1)C(Cl)C(=O)c1ccccc1 (stereo not given) | 114 |
| Cc1c(C(=O)O)oc2c1ccc1ccccc12 | 207 |
| Cc1ccccc1NC1=CC=C(Nc2ccccc2C)C2C(=O)c3ccccc3C(=O)C12 (stereo not given) | 220.8 |
| COc1ccc(-c2n[nH]c(=S)o2)cc1 | 203 |
| NC(=[NH2+])c1ccc(OCCCCCCOc2ccc(C(N)=[NH2+])cc2)cc1.O=S(=O)(O)CC[O-].O=S(=O)(O)CC[O-] | 217 |
| C=C(C)C(=O)OC1C2CCC(C2)C1CC(O)(C(F)(F)F)C(F)(F)F (stereo not given) | 47.5 |
| N#Cc1ccc(NC(N)=O)cc1 | 235 |
| C1CNCCN1.Cl.Cl | 335 |
| OCc1ccncn1 | 76.5 |
| c1ccc2cc(SSc3ccc4ccccc4c3)ccc2c1 | 140 |
| CSc1ccc([N+](=O)[O-])c(C(=O)O)c1 | 177 |
| O=c1[nH]c2ccc(S(=O)(=O)Cl)cc2o1 | 153 |
| O=C(O)Cc1cc2c(cc1Br)OCCO2 | 221 |
| COc1ccccc1C(=N)NO | 106 |
| NC(=O)c1ccc(S(N)(=O)=O)cc1 | 244 |
| Nc1c(-c2ccccc2)nc2ccccn12 | 154 |
| CCOc1ccc(C(=O)CBr)cc1 | 58 |
| Cc1ccc(-n2cnnc2SCC(=O)O)cc1 | 219 |
| O=C(O)c1cn[nH]c1-c1ccc(F)cc1 | 303 |
| O=C(Nc1ccc(O)cc1)c1ccccc1 | 216 |
| COc1cc(NC(C)=O)c(C(=O)O)cc1OC | 230 |
| N#CCC(=O)Nc1ccc(C(=O)O)cc1 | 196 |
| CCCCCCCCCCCCCCCCCCN(CCCCCCCCCCCCCCCCCC)C(=O)c1ccccc1C(=O)O | 41.15 |
| C=CCSc1nnc(N)s1 | 120 |
| Cc1[nH]c(=O)[nH]c(=O)c1C#N | 352 |
| O=S1(=O)CCNc2ccccc21 | 140 |
| COC(=O)Nc1cccc(O)c1 | 96 |
| CCCCn1nc(C(=O)O)ccc1=O | 120 |
| Cn1cc([N+](=O)[O-])cc1C(=O)O | 200 |
| Cc1cccc2[nH]c(C(=O)O)cc12 | 217 |
| O=C(N=NC(=O)OCCCC(F)(F)C(F)(F)C(F)(F)C(F)(F)C(F)(F)C(F)(F)F)OCCCC(F)(F)C(F)(F)C(F)(F)C(F)(F)C(F)(F)C(F)(F)F | 58 |
| O=C(O)CCc1cnn(-c2ccccc2)c1 | 84.5 |

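The numbers are reported measurements, compiled and curated for the OPERA QSAR suite. The files give a single number for a compound and property, which may rest on several reports. Method, purity and exact conditions of the single measurements are not given. A value may pool stereoisomers or salt forms, and the file does not say which form was measured. Unmarked limits or estimates from the upstream databases cannot be ruled out.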

Data: OPERA 2.9 data sets, kmansouri/OPERA on GitHub.